What was measured:
[1] = test system: CO/N=C(\C(=O)N[C@@H]1C(=O)N2C(C(=O)[O-])=C(C[N+]3(C)CCCC3)CS[C@H]12)c1csc(N)n1; test: (§1) Activity at Pseudomonas aeruginosa COL-1 metallo-beta lactamase VIM-2 by spectrometry
[2] = test system: CC(C)(O/N=C(\C(=O)N[C@@H]1C(=O)N2C(C(=O)[O-])=C(C[n+]3ccccc3)CS[C@H]12)c1csc(N)n1)C(=O)O; test: as §1
[3] = test system: CC1(C)S[C@@H]2[C@H](NC(=O)[C@H](N)c3ccccc3)C(=O)N2[C@H]1C(=O)O; test: as §1
[4] = test system: CO[C@@]1(NC(=O)Cc2cccs2)C(=O)N2C(C(=O)O)=C(COC(N)=O)CS[C@@H]21; test: as §1
[5] = test system: C[C@@H](O)[C@H]1C(=O)N2C(C(=O)O)=C(SCCNC=N)C[C@H]12; test: as §1
[6] = test system: CO/N=C(\C(=O)N[C@@H]1C(=O)N2C(C(=O)[O-])=C(C[n+]3cccc4c3CCC4)CS[C@H]12)c1csc(N)n1; test: (§2) Ratio of Kcat to Km for Pseudomonas aeruginosa COL-1 metallo-beta lactamase VIM-2
[7] = test system: CO/N=C(\C(=O)N[C@@H]1C(=O)N2C(C(=O)[O-])=C(C[N+]3(C)CCCC3)CS[C@H]12)c1csc(N)n1; test: as §2
[8] = test system: C[C@@H](O)[C@H]1C(=O)N2C(C(=O)O)=C(SCCNC=N)C[C@H]12; test: as §2
[9] = test system: C[C@H]1[C@H](NC(=O)/C(=N\OC(C)(C)C(=O)O)c2csc(N)n2)C(=O)N1S(=O)(=O)O; test: as §2
[10] = test system: CO/N=C(\C(=O)N[C@@H]1C(=O)N2C(C(=O)[O-])=C(C[N+]3(C)CCCC3)CS[C@H]12)c1csc(N)n1; test: (§3) Ratio of Kcat to Km for Pseudomonas aeruginosa M5109 metallo-beta-lactamase VIM-11
[11] = test system: C[C@@H](O)[C@H]1C(=O)N2C(C(=O)O)=C(SCCNC=N)C[C@H]12; test: as §3
[12] = test system: C[C@H]1[C@H](NC(=O)/C(=N\OC(C)(C)C(=O)O)c2csc(N)n2)C(=O)N1S(=O)(=O)O; test: as §3
[13] = test system: CO/N=C(\C(=O)N[C@@H]1C(=O)N2C(C(=O)[O-])=C(C[N+]3(C)CCCC3)CS[C@H]12)c1csc(N)n1; test: (§4) Activity at Pseudomonas aeruginosa M5109 metallo-beta-lactamase VIM-11 by spectrometry
[14] = test system: C[C@@H](O)[C@H]1C(=O)N2C(C(=O)O)=C(SCCNC=N)C[C@H]12; test: as §4

Substance | Km [1] [µM] | kcat [1] [s⁻¹] | kcat [2] [s⁻¹] | kcat [3] [s⁻¹] | Km [4] [µM] | Km [5] [µM] | kcat [5] [s⁻¹] | kcat/Km [6] [×10⁶ /M/s] | kcat/Km [7] [×10⁶ /M/s] | kcat/Km [8] [×10⁶ /M/s] | kcat/Km [9] | kcat/Km [10] [×10⁶ /M/s] | kcat/Km [11] [×10⁶ /M/s] | kcat/Km [12] | Km [13] [µM] | kcat [13] [s⁻¹] | Km [14] [µM] | kcat [14] [s⁻¹]
Metallo-beta-lactamase VIM-2 (Pseudomonas aeruginosa) (from UniProt D1MEN9) | > 1200 | > 33 | 2.8 | 302 | 9.9 | 9.9 | 30.2 | 2.8 | 2.8 | 3.1 | Not Active |  |  |  |  |  |  | 
Metallo-beta-lactamase VIM-11 (Pseudomonas aeruginosa) (from UniProt C7DTR7) |  |  |  |  |  |  |  |  |  |  |  | 8.3 | 2.1 | Not Active | > 1200 | > 100 | 9.4 | 20

Reference: ChEMBL document CHEMBL1255351, “Biochemical characterization of metallo-beta-lactamase VIM-11 from a Pseudomonas aeruginosa clinical strain” (2008)
